# Test results: PubChem BioAssay AID602440 (Sanford-Burnham Center for Chemical Genomics, 2012)
# Sequences of proteins named here, by UniProt entry; tags and fusion partners are left off. A change or cut given only in a name is not applied to a line headed by its entry.
# UniProt Q96LD8: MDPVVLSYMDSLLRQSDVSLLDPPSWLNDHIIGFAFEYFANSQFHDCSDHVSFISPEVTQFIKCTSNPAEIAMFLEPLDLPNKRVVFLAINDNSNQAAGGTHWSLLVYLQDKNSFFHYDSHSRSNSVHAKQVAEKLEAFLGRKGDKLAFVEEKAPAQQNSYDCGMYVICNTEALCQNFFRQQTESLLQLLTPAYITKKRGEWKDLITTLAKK
# This is a selection; strong and weak results do not stand in their true shares. Active and inactive are the calls of the source. No stated cut-off is given here; in the data, active means inhibition mostly above about 40% (no sharp cut-off); inactive means mostly below about 27%.
# Target: Sentrin-specific protease 8 (Homo sapiens) (UniProt Q96LD8)
# Experiment: human SENP8 protease inhibitors, primary screen, biochemical, fluorescence, Nedd8 protein substrate, uHTS (AID 602440)
# Details: recombinant SENP8, Nedd8 substrate fluorescence; at 20 µM; active compounds read high
row,Structure (SMILES),inhibition
1,Cc1c2c(nc3ccccc13)SC(C(Cl)Cl)C2 (stereo unspecified),inactive: -6.5%
2,Cc1cc(=O)[nH]c(N[N+](=O)[O-])n1,inactive: 13.9%
3,O=C(OC1CN2CCC1CC2)C12CC3CC(CC(C3)C1)C2 (stereo unspecified),inactive: 26.3%
4,O=P1(N(CCCl)CCCl)Nc2ccccc2N1,inactive: 12.6%
5,O=P1(N(CCCl)CCCl)OCCCN1CCCl (stereo unspecified),inactive: -1.4%
6,COc1cc(I)ccc1[As](=O)(O)O,inactive: 10.4%
7,COc1ccc2nc(NP(=O)(c3ccccc3)c3ccccc3)sc2c1,inactive: 9.6%
8,ClCCSc1nnc(-c2cccnc2)o1,inactive: 17.3%
9,CC(C)c1ccc(OP(=O)(Nc2ccccn2)Oc2ccccc2F)cc1 (stereo unspecified),inactive: -106%
10,COC(=O)C1(C)COP(=O)(N2CCCCCC2)OC1 (stereo unspecified),inactive: 9.3%
11,O=[N+]([O-])c1cc([N+](=O)[O-])c(-c2ccn[nH]2)s1,active: 33.3%
12,O=C(OC1CN2CCC1CC2)c1cccc2[nH]cnc12 (stereo unspecified),inactive: 0.6%
13,CCN(CC)C(=S)SC(NC=O)C(Cl)(Cl)Cl (stereo unspecified),inactive: 22.2%
14,CC(C)NC(=O)NP(=O)(Oc1ccccc1)Oc1ccccc1,inactive: 11.1%
15,COc1cc(C(=O)NCC2(N3CCOCC3)CCCCC2)ccc1OCC(C)C,inactive: 19.6%
16,O=[N+]([O-])c1ccc(-c2cc([N+](=O)[O-])c(O)c([N+](=O)[O-])c2)cc1,active: 61.4%
17,C[As](=O)(O)c1cccc(C(=O)O)c1,inactive: 10.1%
18,O=[As](O)(c1ccc(O)cc1)c1ccccc1O,inactive: 10.9%
19,[N-]=[N+]=NC1CCCCC1NC(=O)c1cc([N+](=O)[O-])cc([N+](=O)[O-])c1 (stereo unspecified),inactive: 13.5%
20,Cc1ccc(OP(=O)(Nc2ccc([N+](=O)[O-])cn2)Oc2ccc(C)cc2)cc1,inactive: 13.1%
21,Cc1ccc2nc3c(c(C)c2c1)CC(C(Cl)Cl)S3 (stereo unspecified),inactive: -7.4%
22,CCOC(=O)Nc1cccc([As](=O)(O)O)c1,inactive: 9.9%
23,O=P(Nc1ccccn1)(c1cccc2ccccc12)c1cccc2ccccc12,inactive: -40.6%
24,Cc1cc(SC(NC=O)C(Cl)(Cl)Cl)ncn1 (stereo unspecified),inactive: 14.4%
25,O=[N+]([O-])c1ccc(Nc2ccc(Oc3ccc([N+](=O)[O-])cc3[N+](=O)[O-])cc2)c([N+](=O)[O-])c1,inactive: 39.3%
26,CCOC(=O)Nc1ccc([As](=O)(O)O)c(O)c1,inactive: 24.3%

row,Structure (SMILES),inhibition
1,O=C(O)C(O)c1ccc(N(CCCl)CCCl)cc1 (stereo unspecified),inactive: 6.7%
2,CC1CCNP(=O)(N(CCCl)CCCl)O1 (stereo unspecified),inactive: 1%
3,COP(=O)(OC)N1CC1c1ccccc1 (stereo unspecified),inactive: 11.6%
4,Cc1cc(SC(NC(=O)c2ccccc2)C(Cl)(Cl)Cl)nc(C(C)C)n1 (stereo unspecified),inactive: -6.7%
5,CCCCOc1ccc(C(=O)NCC2(N3CCCCC3)CCCCC2)cc1OC,inactive: 4%
6,CSc1ccc(Nc2c([N+](=O)[O-])cc([N+](=O)[O-])cc2[N+](=O)[O-])cc1,active: 50.6%
7,O=C(OC1CN2CCC1CC2)c1cccc([N+](=O)[O-])c1 (stereo unspecified),inactive: 19.8%
8,CCOC(=O)c1ccc(NC(=O)C(C)(CCl)SC)cc1 (stereo unspecified),inactive: 17.8%
9,CCC(C)N(CC(C)C)C(=S)SC(NC(C)=O)C(Cl)(Cl)Cl (stereo unspecified),inactive: 3.7%
10,COC(=O)C1(C)COP(=O)(N2CCCC2)OC1 (stereo unspecified),inactive: 6.9%
11,COP1(=S)c2c(C)nn(CCC#N)c2N=C(c2ccc(F)cc2)N1C (stereo unspecified),inactive: 23.1%
12,O=C(O)C(=O)c1ccc(N(CCCl)CCCl)cc1,inactive: 7.2%
13,O=C(Nc1ccncc1[N+](=O)[O-])c1ccc([N+](=O)[O-])cc1[N+](=O)[O-],inactive: 34.3%
14,O=C(COc1ccccc1)OC1CN2CCC1CC2 (stereo unspecified),inactive: 20%
15,CCN(/C(=N/P(=O)(N1CCOCC1)N1CCOCC1)N1CCOCC1)c1ccc(OC)cc1,inactive: 5.7%
16,C[N+]1=C2C=CC=CC=C2SC12C([N+](=O)[O-])=CC([N+](=O)[O-])=C[C-]2[N+](=O)[O-] (stereo unspecified),active: 83.8%
17,Nc1ccc([As](=O)(O)c2ccc(N)cc2)cc1,inactive: 9.2%
18,c1cc(-c2nn[nH]n2)ccc1-c1nn[nH]n1,inactive: 17.6%
19,CC1CCN(C(=O)Oc2c(Cl)cc(Cl)c3cccnc23)CC1,active: 41.7%
20,CN(C)C(=O)OCCc1n(C)cc[n+]1C,inactive: 6.8%
21,CC(C)=N/N=C(\N)N[N+](=O)[O-],inactive: 5.3%
22,CC(C)c1nc(Nc2ccccc2)n(P(=O)(N(C)C)N(C)C)n1,inactive: 10.5%
23,COc1ccc(C2=NCC(CBr)S2)cc1 (stereo unspecified),inactive: 10.8%
24,CCc1nc2c(n1)c1c(non1O)c1c2no[n+]1[O-],inactive: 6.3%
25,O=[N+]([O-])c1cc([N+](=O)[O-])c(CCNc2ccccc2)c([N+](=O)[O-])c1,active: 38.7%
